Tests used:
[1] = test system: M1 receptors (brain); settings: source Freedman et al 1988, cited from earlier work; for M1/M2 RATIO: ratio of 1/Kapp M1 (brain) to M2 (heart); for 1/Kapp M1 (brain): relative affinity
[2] = test system: M2 receptors (heart); settings: relative affinity; source Freedman et al 1988; cited from earlier work
[3] = test system: pilocarpine seizures; settings: administered prior to the pilocarpine; Honchar et al 1983; cited from earlier work
[4] = test system: lithium-pilocarpine seizures; test: Lithium-pilocarpine assay using post-treatment (protection against lithium-pilocarpine seizures and brain damage); settings: for ED50, protection against lithium-pilocarpine seizures: dose preventing seizure activity and neurotoxic damage in 50% of rats, given after onset of convulsions, lithium chloride 3 meq/kg sc, pilocarpine 30 mg/kg ip 24 h later, 4 h observation
[5] = test system: cingulate/retrosplenial neurons; test: Prevention of adverse side effects caused by NMDA antagonists in cingulate/retrosplenial neurons; settings: including vacuole formation and mitochondrial dissolution in cingulate/retrosplenial neurons

Structure (SMILES) | M1/M2 RATIO [1] | 1/Kapp M1 (brain) [1] | 1/Kapp M2 (heart) [2] | degree of protection against seizures induced by pilocarpine [3] | ED50, protection against lithium-pilocarpine seizures [4] [mg/kg] | prevention of adverse side effects caused by NMDA antagonists [5] | EEG-recordable seizure activity ([4]; entire 4 hour observation period, EEG studied with lithium-pilocarpine (or soman, Example 2))
CN1C2CCC1CC(OC(=O)C(CO)c1ccccc1)C2 (racemic) | 2.1 | 0.63 | 0.29 | limited degree of protection | 22.9 |  | 
OC(CCN1CCCCC1)(c1ccccc1)C1CC2C=CC1C2 (stereo not drawn) | 18 | 0.83 | 0.04 |  | 4.5 |  | 
CN1C2CC(OC(=O)C(CO)c3ccccc3)CC1C1OC12 (stereo not drawn) |  |  | 0.20 |  |  | effective | 
CN1[C@@H]2CC[C@H]1C[C@@H](OC(c1ccccc1)c1ccccc1)C2 | 18 | 1.14 | 0.07 |  | 4.5 | effective | 
CCN(CC)CCOC(=O)C(O)(c1ccccc1)c1ccccc1 |  |  |  |  | 4.2 | effective | 
OC(CCN1CCCCC1)(c1ccccc1)C1CCCCC1 (stereo not drawn) | 13 | 0.45 | 0.03 |  | 2.5 |  | 
OC(CCN1CCCC1)(c1ccccc1)C1CCCCC1 (stereo not drawn) |  |  |  |  | 8.3 |  | completely blocked EEG-recordable seizure activity
